Test results: patent US20140220085A1, “METHOD FOR TISSUE ENGINEERING” (Industrial Technology Research Institute, priority 2011, published 2014)

Experiments:
C2C12 cells [1] = assay: Activity of ALP in C2C12 cells with agglomer placed in a transwell; type: cell-based; conditions: FIG. 11, C2C12, 72 hours
Experimental: The concentration of the C2C12 cells was adjusted to 4×10^4 cells/ml. 1.0 ml of the medium was dropped in a 12-well cell culture plate and left to stand in an incubator with 5% CO2 for 18 hours to make the cells uniformly attach to the cell culture plate. The medium in the cell culture plate attached with the cells was replaced with a DMEM medium (2% FBS). A transwell with a pore size of 8.0 μm was placed on the cell culture plate. The biomedical material (agglomer) of Example 7 was placed in the transwell. The medium was then added to the transwell to cover the biomedical material (agglomer). The cell culture plate was left to stand in the incubator for 72 hours. After the cells were washed with PBS, a lysis buffer was added to the medium. After centrifugation, a supernatant was collected and a BCA (bicinchoninic acid) assay was performed thereon to detect the protein concentration thereof. The activity of alkaline phosphatase (ALP) was detected utilizing the p-nitrophenyl palmitate (pNPP) substrate.

C2C12 cells [2] = assay: Detection of activity of ALP in C2C12 cells, 72 hours, pNPP substrate / BCA; type: cell-based
Experimental: C2C12 cells purchased from Bioresource Collection and Research Center (BCRC) were cultured in an incubator with 5% CO2 and cryopreserved in a liquid nitrogen barrel. A DMEM medium (10% FBS and 1% penicillin/streptomycin) was utilized for cell culture and subculture. When the cells were cultured to achieve 90% of confluence, the concentration of the cells was diluted with a ratio of 1:10 and subcultured.
(§1) The concentration of the C2C12 cells was adjusted to 4×10^4 cells/ml. 0.5 ml of the medium was dropped in a 24-well cell culture plate and left to stand in an incubator with 5% CO2 for 18 hours to make the cells uniformly attach to the cell culture plate. The medium in the cell culture plate attached with the cells was replaced with a DMEM medium (2% FBS) and the sample of No. 4 recited on Table 2 of Example 2 was added thereto. The encapsulation amount of BMP-2 ranged from 10 μg/mL to 100 μg/mL. The cell culture plate was left to stand in the incubator for 72 hours. After the cells were washed with PBS, a lysis buffer was added to the medium. After centrifugation, a supernatant was collected and a BCA (bicinchoninic acid) assay was performed thereon to detect the protein concentration thereof. The activity of alkaline phosphatase (ALP) was detected utilizing the p-nitrophenyl palmitate (pNPP) substrate.
as §1, with “No. 3” for “No. 4”, “thereto. Other added nano carriers encapsulated various vitamins.” for “thereto. The encapsulation amount of BMP-2 ranged from 10 μg/mL to 100 μg/mL.”
The concentration of the C2C12 cells was adjusted to 4×10^4 cells/ml. 0.5 ml of the medium was dropped in a 24-well cell culture plate and left to stand in an incubator with 5% CO2 for 18 hours to make the cells uniformly attach to the cell culture plate. The medium in the cell culture plate attached with the cells was replaced with a DMEM medium (2% FBS) and the sample of No. 3 recited on Table 2 of Example 2 was added thereto. […] The activity of alkaline phosphatase (ALP) was detected utilizing the p-nitrophenyl palmitate (pNPP) substrate.

## human bone morphogenetic protein 2 [BMP-2]
C2C12 cells [1]
  activity of ALP: 1.00
C2C12 cells [2]; FIG. 6, C2C12, 72 hours
  activity of ALP: 3.1
C2C12 cells [2]; FIG. 6, two times the amount of BMP-2 (100 μg/ml) without encapsulation
  activity of ALP: 5.1
C2C12 cells [2]; FIG. 7, C2C12, 72 hours, vitamin A high dose 0.26 μμmol/ml for the nano carrier
  activity of ALP: 0.65
C2C12 cells [2]; FIG. 7, four times the amount of BMP-2 (200 μg/ml) without encapsulation
  activity of ALP: 1.7
